Consider 1 molecule from ChEMBL document CHEMBL5625159, “Challenges for the development of mutant isocitrate dehydrogenases 1 inhibitors to treat glioma” (Eur J Med Chem, 2023).

Amino acid sequences for entries named in this document (tags omitted). Residues count along the entry.
UniProt O75874, 2-414 R132H limits assumed: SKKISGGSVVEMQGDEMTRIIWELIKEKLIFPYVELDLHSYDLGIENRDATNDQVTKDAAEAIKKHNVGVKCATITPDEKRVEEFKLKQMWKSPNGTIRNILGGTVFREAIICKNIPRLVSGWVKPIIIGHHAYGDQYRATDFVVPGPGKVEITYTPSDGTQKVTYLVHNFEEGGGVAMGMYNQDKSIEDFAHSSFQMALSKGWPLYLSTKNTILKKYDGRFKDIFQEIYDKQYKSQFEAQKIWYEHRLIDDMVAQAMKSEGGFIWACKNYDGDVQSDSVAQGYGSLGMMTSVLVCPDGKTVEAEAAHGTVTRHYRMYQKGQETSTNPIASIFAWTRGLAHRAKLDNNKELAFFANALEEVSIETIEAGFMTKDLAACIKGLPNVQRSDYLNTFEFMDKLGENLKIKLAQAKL

This assay deals with Isocitrate dehydrogenase [NADP] cytoplasmic (Homo sapiens, UniProt O75874, R132H). Nature of the assay: Inhibition of human recombinant IDH1 R132H mutant expressed in Escherichia coli BL21 (DE3) cells in presence of alpha-ketoglutarate and NADPH by fluorescence based biochemical assay.

On to `C[C@H](O)c1cccc(NC(=O)c2nn(Cc3ccc(F)cc3)c3c2CN(C(=O)c2ccc[nH]2)C[C@H]3C)c1`, for which the IC50 (commonly the concentration that gives 50% inhibition) came to 2.9 nM.
